In patent US20110039935A1, “USE OF PHARMACOLOGICALLY ACTIVE CHEMICAL COMPOUNDS” (ENTRESS AB, priority 2007, published 2011):

Tests used:
[1] = for blood level of AKG: after enteral administration
[2] = tested on: abdominal aorta sections of elderly mice; conditions: first stretch series (FIG. 4)
Experimental: This time, experimental subjects that were in need of increased artery elasticity for a more general reason, namely advanced age, were studied.
Female NMRI mice, aged 50 weeks at the start of the trial, were housed at the animal facilities of the Department of Cell & Organism Biology, Lund University, Sweden. The animals were raised under the same conditions with a 12/12 hour light-dark cycle. Mice were fed rodent pellets ad libitum (Altromin no. 1314 Spezialfutterwerke, Lage, Germany) and given free access to drinking water. […] Mice allocated to Group 3 were only fed rodent pellets and were considered to be the Control group (n=6). […]
Aorta sections were immersed into oxygenated and thermostatically controlled chambers (37° C.), having an internal depth and diameter of 5.5 and 3.2 cm, respectively, and holding 44 ml of phosphate buffered saline (0.15 M PBS, pH 7.4) comprising in mM; NaCl 136.91, KCl 2.68, Na2HPO4 8.08 and NaH2PO4 1.66. Force was measured using a FTO3 force displacement transducer (Grass Instrument, West Warwick, R.I.) connected to a home-built bridge amplifier which was interfaced with a 8S PowerLab A/D Converter (ADInstruments, Chalgrove, Oxfordshire, UK). […]
Aorta sections were suspended vertically, and in duplicate. The recorded signal was adjusted to zero for un-tensioned aorta sections with the aid of an offset dial mounted on the pre-amplifier unit. […]

SMILES | blood level of AKG [1] | uptake after enteral administration ([1]; enteral administration) | effect on arterial elasticity compared with the control mice [2]
O=C([O-])CCC(=O)C(=O)[O-].[Ca+2] [Ca−AKG, calcium alpha-ketoglutarate] | never or seldom observed | slowed uptake with longer lasting effect | –
O=C([O-])CCC(=O)C(=O)[O-].[Na+].[Na+] [Na−AKG, sodium alpha-ketoglutarate] | exceed 10 μg/ml | – | significant effect
